The data set concerns the molecule itself. The data set can be described thus: glycerol gradient centrifugation; 10 ml linear 20-40% (v/v) glycerol gradient, 10 mM Tris-HCl pH 8.0, 100 mM NaCl, 1 mM EDTA, 2 mM DTT; SW-41 rotor, 38 000 rpm, 24 h, 8°C; fractions by SDS-PAGE and Coomassie; S value and molecular weight by comparison with protein markers; major oligomeric state.

Substitutions are numbered along the chain they refer to. In names and notes the source's numbering stands. Several values for one entry are separate records, joined by “and”; a condition that tells them apart may be missing. Equal values may be shown once.

B1: translin variant Ct-1 (E206A) (natural protein, human, UniProt Q15631 1-228, looked up)
chain: MSVSEIFVELQGFLAAEQDIREEIRKVVQSLEQTAREILTLLQGVHQGAGFQDIPKRCLKAREHFGTVKTHLTSLKTKFPAEQYYRFHEHWRFVLQRLVFLAAFVVYLETETLVTREAVTEILGIEPDREKGFHLDVEDYLSGVLILASELSRLSVNSVTAGDYSRPLHISTFINELDSGFRLLNLKNDSLRKRYDGLKYDVKKVAEVVYDLSIRGFNKETAAACVEK
notes: translin, human; mutant of the pQE-9 translin plasmid made by QuikChange site-directed mutagenesis; Same construct as m1 with the stated substitution; also called C-terminal 1; source: E. coli, purified
With B1, the stoichiometry N – broadly, the number of molecules, sites or subunits per partner or assembly – is 2 subunits and 2.1 subunits.

B2: translin variant Ct-2 (R153A) (natural protein, human, UniProt Q15631 1-228, looked up)
chain: B1 chain with R153A, A206E
notes: translin, human; mutant of the pQE-9 translin plasmid made by QuikChange site-directed mutagenesis; Same construct as m1 with the stated substitution; also called C-terminal 2; source: E. coli, purified
Turning to B2, the “stoichiometry N” value was 2 subunits.

The values are drawn from publication PMC3834833 (Nucleic Acids Research, 2013).
